In patent publication US6541463B1, “Inhibitors of type 5 and type 3 17β-hydroxysteroid dehydrogenase and methods for their use” (Endorecherche, Inc., priority 1998, dated 2003):
Where two headings read alike, the source gives them in different places.

Chains of the proteins cited; added tags and fusions are not shown.
UniProt P42330, whole entry: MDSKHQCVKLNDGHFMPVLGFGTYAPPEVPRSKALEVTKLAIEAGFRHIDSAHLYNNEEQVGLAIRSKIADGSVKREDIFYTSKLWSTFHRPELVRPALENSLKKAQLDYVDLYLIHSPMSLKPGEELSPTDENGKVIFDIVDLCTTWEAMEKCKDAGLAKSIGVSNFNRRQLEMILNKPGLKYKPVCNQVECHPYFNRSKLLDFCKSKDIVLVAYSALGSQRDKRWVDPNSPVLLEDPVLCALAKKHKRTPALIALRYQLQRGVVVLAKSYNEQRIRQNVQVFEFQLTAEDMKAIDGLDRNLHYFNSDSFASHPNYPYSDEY
UniProt P37059, whole entry: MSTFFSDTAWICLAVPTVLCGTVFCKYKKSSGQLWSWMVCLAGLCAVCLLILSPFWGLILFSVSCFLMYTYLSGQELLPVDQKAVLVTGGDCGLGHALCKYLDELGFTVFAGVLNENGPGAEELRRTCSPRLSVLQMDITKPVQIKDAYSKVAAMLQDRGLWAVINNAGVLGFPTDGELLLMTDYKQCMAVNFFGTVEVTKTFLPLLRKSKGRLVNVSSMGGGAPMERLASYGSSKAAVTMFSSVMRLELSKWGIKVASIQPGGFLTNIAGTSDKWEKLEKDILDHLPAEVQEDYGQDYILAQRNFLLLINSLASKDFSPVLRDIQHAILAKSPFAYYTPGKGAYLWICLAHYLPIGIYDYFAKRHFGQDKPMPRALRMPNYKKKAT

What was measured:
ZR-75-1 cells [1] = assay: Estrogenic activity: stimulation of proliferation of ZR-75-1 cells; type: cell-based, human
[2] = target: human type 5 17β-hydroxysteroid dehydrogenase (Homo sapiens, UniProt P42330); assay: Inhibition of human type 5 17β-HSD activity in transfected 293 cells; type: cell-based
[3] = system: Shionogi mouse mammary carcinoma cells; assay: Androgenic activity: stimulation of proliferation of Shionogi cells
[4] = system: Shionogi mouse mammary carcinoma cells; assay: Antiandrogenic activity: inhibition of DHT-induced proliferation of Shionogi cells; type: cell-based
ZR-75-1 cells [5] = assay: Antiestrogenic activity: inhibition of E2-induced proliferation of ZR-75-1 cells; design: ZR-75-1 Activity, E2 / ZR-75-1 Activity E2 E^−6: unit not given here
[6] = target: human type 2 17β-hydroxysteroid dehydrogenase (Homo sapiens, UniProt P37059); assay: Enzymatic assay for type 2 17β-HSD; settings: for Inhibition Type 2 17β-HSD Activity [% Inh. at 3.10^−5 M]: Table 5 column 5; for Inhibition Type 2 17β-HSD Activity [% Inh.]: at 3.10^-8M
[7] = read-out: Inhibition Type V 17β-HSD IC50
[8] = read-out: Inhibition Type V 17β-HSD IC50, Table 5 column 2
[9] = read-out: Inhibition Type V 17B-HSD IC50
[10] = read-out: Antiandrogenic Activity Shionogi DHT [IC50 (nM)], with DHT, value in square brackets on second line
[11] = read-out: Antiandrogenic Activity Shionogi, DHT [IC50], DHT

Row | Structure (SMILES) | IC50 [2, 7] [nM] | Androgenic Activity Shionogi, Basal ([3]; E^−6) | Androgenic Activity Shionogi, Basal ([3]; E^−7) | Antiandrogenic Activity Shionogi, DHT ([4]; DHT, E^−6) | Antiandrogenic Activity Shionogi, DHT ([4]; DHT, E^−7) | Inhibition Type 2 17β-HSD Activity [% Inh.] [6] | also measured
1 | CC(=O)CCCC(=O)O[C@]1(C(C)=O)CCC2C3C=C(C)C4=CC(=O)CC[C@]4(C)C3CC[C@@]21C (some centres unmarked) | 11 | −11 | 5 | −109 | −22 | – | ZR-75-1 Activity, Basal (ZR-75-1 cells [1]; E^−6): 0; ZR-75-1 Activity, Basal (ZR-75-1 cells [1]; E^−8): −23; ZR-75-1 Activity, E2 (ZR-75-1 cells [5]; E2): −47; ZR-75-1 Activity, E2 (ZR-75-1 cells [5]; E2, E^−8): −60
2 | CC1(C)CC[C@@]2(CCC3C4CCC5NC(=O)C=C[C@]5(C)C4CC[C@@]32C)OC1=O (some centres unmarked) | – | – | – | – | – | – | Inhibition Type 2 17β-HSD Activity [% Inh. at 3.10^−5 M] ([6]; bracketed values): [81] %; IC50 [2, 8]: 26 nM
3 | CCC(=O)O[C@]1(C(=O)N(C)CC(C)C)CCC2C3C=C(C)C4=CC(=O)CC[C@]4(C)C3CC[C@@]21C (some centres unmarked) | 4 | −40 | −38 | −112 | −53 | [83] % | –
4 | CCCN(C)C(=O)[C@@]1(OC(=O)CC)CCC2C3C=C(C)C4=CC(=O)CC[C@]4(C)C3CC[C@@]21C (some centres unmarked) | 6 | −56 | −28 | 116 | −47 | [87] % | –
5 | C[C@]12CCC3c4ccccc4CCC3C1CC[C@@]21CCCC(=O)O1 (some centres unmarked) | – | – | – | – | – | – | Inhibition Type 2 17β-HSD Activity [% Inh. at 3 · 10^−8M] ([6]; Table 4′, bracketed values, 3 · 10^−8M): [88] %; IC50 ([2]; read-out: Inhibition Type V 17β-HSD IC50, Table 4′): 10.3 nM; Androgenic Activity Shionogi Basal E^−7 ([3]; Table 4′, E^−7): +17%; Antiandrogenic Activity Shionogi DHT E^−6 ([4]; Table 4′, DHT-induced proliferation, E^−6 (10^−6 M)): −46%; Antiandrogenic Activity Shionogi DHT E^−7 ([4]; Table 4′, DHT-induced proliferation, E^−7): +2%; IC50 ([4]; read-out: Antiandrogenic Activity Shionogi, DHT [IC50 (nM)], Table 4′, bracketed values): 2100 nM
6 | CCCC(=O)O[C@]1(C(=O)N(C)CCC)CCC2C3C=C(C)C4=CC(=O)CC[C@]4(C)C3CC[C@@]21C (some centres unmarked) | 6 | −59 | −41 | −119 | −101 | [75] % | –
7 | CC1=CC2C(CC[C@@]3(C)C2CCC(=O)[C@@]3(C)OC(=O)C2CCCC2)[C@]2(C)C1=CC(=O)C[C@@H]2C (some centres unmarked) | – | – | – | – | – | – | IC50 [2, 9]: 24.2 nM; Androgenic Activity Shionogi Basal E^−6 ([3]; E^−6): −22; Androgenic Activity Shionogi Basal E^−7 ([3]; E^−7): 0; IC50 [4, 10]: 184 nM; Antiandrogenic Activity Shionogi DHT E^−6 ([4]; with DHT, E^−6): −107; Antiandrogenic Activity Shionogi DHT E^−7 ([4]; with DHT, E^−7): −23
8 | CCC(=O)O[C@]1(C(=O)N(C)C(C)C)CCC2C3C=C(C)C4=CC(=O)CC[C@]4(C)C3CC[C@@]21C (some centres unmarked) | 7 | 0 | 0 | −99 | −25 | [84] % | –
9 | CC(=O)[C@@]1(OC(=O)C2CCCC2)CC[C@H]2[C@@H]3C=C(C)C4=CC(=O)CC[C@]4(C)[C@H]3CC[C@@]21C | – | −25 | −23 | −110 | −79 | – | ZR-75-1 Activity, Basal (ZR-75-1 cells [1]; E^−6): 0; ZR-75-1 Activity, Basal (ZR-75-1 cells [1]; E^−8): −17; IC50 [4, 11]: 44 nM; ZR-75-1 Activity, E2 (ZR-75-1 cells [5]; E2): −46; ZR-75-1 Activity, E2 (ZR-75-1 cells [5]; E2, E^−8): −39
10 | CN1C(=O)CC[C@]2(C)C3CC[C@@]4(C)C(CC[C@@]45CCCC(=O)O5)C3CCC12 (some centres unmarked) | – | – | – | – | – | – | ZR-75-1 Activity Basal E^−6 (ZR-75-1 cells [1]; Table 5 column 11, E^−6): 0 0%; ZR-75-1 Activity Basal E^−8 (ZR-75-1 cells [1]; Table 5 column 11, E^−8): 0 0%; Inhibition Type 2 17β-HSD Activity [% Inh. at 3.10^−5 M] ([6]; bracketed values): [68] %; IC50 [2, 8]: 27.8 nM
11 | CCCC(=O)O[C@]1(C(=O)N(C)CC(C)C)CCC2C3C=C(C)C4=CC(=O)CC[C@]4(C)C3CC[C@@]21C (some centres unmarked) | 5 | −44 | −33 | −116 | −92 | [79] % | –
12 | CC(=O)O[C@]1(C)C(=O)CCC2C3C=C(C)C4=CC(=O)C[C@H](C)[C@]4(C)C3CC[C@@]21C (some centres unmarked) | – | – | – | – | – | – | IC50 [2, 9]: 28.5 nM; Androgenic Activity Shionogi Basal E^−6 ([3]; E^−6): −32; Androgenic Activity Shionogi Basal E^−7 ([3]; E^−7): −12; IC50 [4, 10]: 151 nM; Antiandrogenic Activity Shionogi DHT E^−6 ([4]; with DHT, E^−6): −106; Antiandrogenic Activity Shionogi DHT E^−7 ([4]; with DHT, E^−7): −41
13 | C[C@]12CCC(=O)NC1CCC1C2CC[C@@]2(C)C1CC[C@@]21CCCCC(=O)O1 (some centres unmarked) | – | – | – | – | – | – | IC50 [2, 8]: 20 nM
14 | CC(=O)[C@@]1(OC(=O)CCCCCF)CCC2C3C=C(C)C4=CC(=O)CC[C@]4(C)C3CC[C@@]21C (some centres unmarked) | 4.4 | −16 | −14 | −109 | −94 | [50] % | IC50 [4, 11]: 18.5 nM
